Data set [1] is described as follows: Equilibrium dialysis, free fraction in plasma. As to conditions: 10 μg g−1, 5 h dialysis at 37 °C. Background: In equilibrium dialysis only unbound substance equilibrates across the membrane.
The test system of another data set is MRC5 cells. The experiment in a line: Resazurin cell viability counter-screen, EC50 determinations against mammalian cells. Type of data set: cell-based. As to conditions: fold-specificity for T. brucei over human fibroblasts (MRC5). (In general: Alamar Blue is a resazurin reagent that responds to reducing activity.)

As to `CN(C(=O)Cc1ccc(Cl)c(Cl)c1)[C@@H]1CCCC[C@H]1N1CCCC1`, in data set [1], the Fraction unbound in mouse plasma is 0.69. In the data set with MRC5 cells, (±) trans-U-50488 methanesulfonate yielded a Selectivity of 230.

(Values after article PMC3025325, “Identification of a κ-opioid agonist as a potent and selective lead for drug development against human African trypanosomiasis” (Biochemical Pharmacology, 2010).)
